Experimental data as given in patent US9126980B2, “Compounds for inhibiting the interaction of BCL2 with binding partners” (Novartis AG, priority 2011, dated 2015).

The chains behind the UniProt entries cited, without tags or fusion partners.
UniProt P10415, whole entry: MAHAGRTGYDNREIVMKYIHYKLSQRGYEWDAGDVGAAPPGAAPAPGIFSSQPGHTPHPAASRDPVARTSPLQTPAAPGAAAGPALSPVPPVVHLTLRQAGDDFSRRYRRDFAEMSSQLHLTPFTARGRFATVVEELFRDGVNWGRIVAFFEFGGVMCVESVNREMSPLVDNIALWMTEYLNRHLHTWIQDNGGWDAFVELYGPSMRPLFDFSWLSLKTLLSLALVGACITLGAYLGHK

What was measured:
[1] = target: BCL-2 binding to biotinylated BAD peptide (Homo sapiens (Human), UniProt P10415); test: SPR (Biacore) solution inhibition assay, BCL-2 binding to BAD peptide surface; conditions: read-out: BCL2_SPR IC50 BAD; high and low IC50 values from multiple experiments; 56 nM BCL-2, BAD peptide sensor surface, 25° C.
[2] = target: BCL-2 binding to biotinylated BAK peptide (Homo sapiens (Human), UniProt P10415); test: SPR (Biacore) solution inhibition assay, BCL-2 binding to BAK peptide surface; conditions: read-out: BCL2_SPR IC50 BAK; high and low IC50 values from multiple experiments; 56 nM BCL-2, BAK peptide sensor surface, 25° C.

| SMILES | IC50 [1] | IC50 [2] |
| --- | --- | --- |
| CCCCN(CCCC)C(=O)c1cc(C)n(-c2ccc(NS(=O)(=O)c3c(C)nn(C)c3C)cc2C(=O)N2Cc3ccccc3C[C@H]2CO)n1 | 622 to 682 nM | 441 to 492 nM |
| CCCCN(CCCC)C(=O)c1cc(C)n(-c2ccc(NS(=O)(=O)CCN3C(=O)c4ccccc4C3=O)cc2C(=O)N2Cc3ccccc3C[C@H]2CO)n1 | 272 to 320 nM |  |
| CCCCN(CCCC)C(=O)c1cc(C)n(-c2ccc(NS(=O)(=O)c3cc(S(=O)(=O)c4ccccc4)cs3)cc2C(=O)N2Cc3ccccc3C[C@H]2CO)n1 | 791 to 808 nM | 661 to 690 nM |
| CCCCN(CCCC)C(=O)c1cc(C)n(-c2ccc(NS(=O)(=O)CCc3cccc4ccccc34)cc2C(=O)N2Cc3ccccc3C[C@H]2CO)n1 |  | 509 to 549 nM |
| CCCCN(CCCC)C(=O)c1cc(C)n(-c2ccc(NS(=O)(=O)c3ccc(-c4noc(C)n4)cc3)cc2C(=O)N2Cc3ccccc3C[C@H]2CO)n1 |  | 636 to 646 nM |
| CCCCN(CCCC)C(=O)c1cc(C)n(-c2ccc(NS(=O)(=O)c3ccc(-c4ccn(C)n4)cc3)cc2C(=O)N2Cc3ccccc3C[C@H]2CO)n1 |  | 727 to 787 nM |
| CCCCN(CCCC)C(=O)c1cc(C)n(-c2ccc(NS(=O)(=O)c3ccc(Oc4ccc(F)cc4)cc3)cc2C(=O)N2Cc3ccccc3C[C@H]2CO)n1 | 4800 to 6030 nM | 3250 to 3820 nM |
| CCCCN(CCCC)C(=O)c1cc(C)n(-c2ccc(NS(=O)(=O)c3ccc(-c4cnco4)cc3)cc2C(=O)N2Cc3ccccc3C[C@H]2CO)n1 | 863 to 906 nM |  |
| CCCCN(CCCC)C(=O)c1cc(C)n(-c2ccc(NS(=O)(=O)c3scc(C(=O)OC)c3OC)cc2C(=O)N2Cc3ccccc3C[C@H]2CO)n1 | 631 to 633 nM |  |
| CCCCN(CCCC)C(=O)c1cc(C)n(-c2ccc(NS(=O)(=O)c3sc4ccc(F)cc4c3C)cc2C(=O)N2Cc3ccccc3C[C@H]2CO)n1 |  | 788 to 881 nM |
| CCCCN(CCCC)C(=O)c1cc(C)n(-c2ccc(NS(=O)(=O)c3ccc(Oc4ccc(C)cc4)cc3)cc2C(=O)N2Cc3ccccc3C[C@H]2CO)n1 | > 16000 nM | > 16000 nM |
| CCCCN(CCCC)C(=O)c1cc(C)n(-c2ccc(NS(=O)(=O)c3ccccc3[N+](=O)[O-])cc2C(=O)N2Cc3ccccc3C[C@H]2CO)n1 | 264 to 277 nM | 222 to 288 nM |

Second part, the molecule after the results:

| IC50 [1] | IC50 [2] | SMILES |
| --- | --- | --- |
| 636 to 644 nM |  | CCCCN(CCCC)C(=O)c1cc(C)n(-c2ccc(NS(=O)(=O)c3cn(C)cn3)cc2C(=O)N2Cc3ccccc3C[C@H]2CO)n1 |
|  | 3510 to 3610 nM | CCCCN(CCCC)C(=O)c1cc(C)n(-c2ccc(NS(=O)(=O)c3cccc(-c4ccn(C)n4)c3)cc2C(=O)N2Cc3ccccc3C[C@H]2CO)n1 |
| 6820 to 7740 nM |  | CCCCN(CCCC)C(=O)c1cc(C)n(-c2ccc(NS(=O)(=O)c3ccc(-c4cc(Cl)cc(Cl)c4)cc3)cc2C(=O)N2Cc3ccccc3C[C@H]2CO)n1 |
|  | 310 to 311 nM | CCCCN(CCCC)C(=O)c1cc(C)n(-c2ccc(NS(=O)(=O)c3ccccc3C(=O)OC)cc2C(=O)N2Cc3ccccc3C[C@H]2CO)n1 |
| 542 to 627 nM |  | CCCCN(CCCC)C(=O)c1cc(C)n(-c2ccc(NS(=O)(=O)c3ccc(C(=O)OC)o3)cc2C(=O)N2Cc3ccccc3C[C@H]2CO)n1 |
| 251 to 293 nM |  | CCCCN(CCCC)C(=O)c1cc(C)n(-c2ccc(NS(=O)(=O)c3cccc4nonc34)cc2C(=O)N2Cc3ccccc3C[C@H]2CO)n1 |
|  | 304 to 326 nM | CCCCN(CCCC)C(=O)c1cc(C)n(-c2ccc(NS(=O)(=O)c3ccccc3F)cc2C(=O)N2Cc3ccccc3C[C@H]2CO)n1 |
| 593 to 670 nM |  | CCCCN(CCCC)C(=O)c1cc(C)n(-c2ccc(NS(=O)(=O)c3ccc4c(c3)OCCO4)cc2C(=O)N2Cc3ccccc3C[C@H]2CO)n1 |
| 493 to 494 nM |  | CCCCN(CCCC)C(=O)c1cc(C)n(-c2ccc(NS(=O)(=O)c3cccc(Cl)c3Cl)cc2C(=O)N2Cc3ccccc3C[C@H]2CO)n1 |
|  | 479 to 582 nM | CCCCN(CCCC)C(=O)c1cc(C)n(-c2ccc(NS(=O)(=O)c3cc([N+](=O)[O-])ccc3C)cc2C(=O)N2Cc3ccccc3C[C@H]2CO)n1 |
| 475 to 485 nM | 286 to 299 nM | CCCCN(CCCC)C(=O)c1cc(C)n(-c2ccc(NS(=O)(=O)c3ccsc3C(=O)OC)cc2C(=O)N2Cc3ccccc3C[C@H]2CO)n1 |
